Test system: mouse overexpressing PS1(M146V), APP(Swe), and tau(P301L)
Test: Y-maze spatial memory in triple transgenic mouse model of AD
Settings: miniosmotic pumps, 4 weeks, nine-month old mice

Question: With `O=P(O)(O)Oc1c2c(c(OP(=O)(O)O)c3c1C1C[C@H]3c3cc4c(cc31)C1C[C@H]4c3ccccc31)[C@@H]1CC2c2cc3c(cc21)[C@@H]1CC3c2ccccc21` [TW1] as the molecule, how does the “improvement in percent alternations (Y-maze)” value (500 μM TW1 subcutaneously) read?
Answer: 21%

Question: And the “improvement in percent alternations (Y-maze)” value (1 mM TW1 subcutaneously)?
Answer: 16%

Reference: patent US8791092B2 (priority 2009, dated 2014)
